This passage reports activation results from PubChem BioAssay AID574 (The Scripps Research Institute Molecular Screening Center, 2007).

The chains behind the UniProt entries cited, without tags or fusion partners.
UniProt P28566, whole entry: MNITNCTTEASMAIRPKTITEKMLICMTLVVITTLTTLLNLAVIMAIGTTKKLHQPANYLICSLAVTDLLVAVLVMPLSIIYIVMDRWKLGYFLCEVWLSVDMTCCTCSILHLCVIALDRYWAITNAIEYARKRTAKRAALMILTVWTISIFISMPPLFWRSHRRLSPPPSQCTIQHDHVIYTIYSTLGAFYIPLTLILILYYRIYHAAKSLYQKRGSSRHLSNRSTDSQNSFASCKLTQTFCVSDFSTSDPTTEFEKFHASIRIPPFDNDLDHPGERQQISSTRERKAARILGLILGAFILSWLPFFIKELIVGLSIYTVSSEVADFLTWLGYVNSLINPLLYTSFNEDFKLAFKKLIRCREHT

This is a selection; strong and weak results do not stand in their true shares. Calls of active or inactive are those of the source.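 The calls were made as follows: active = activation above a set limit, the screen-wide mean activation plus 3 SD (cut at about 8.5% in these data); inactive = the rest.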

In the assay the target is 5-hydroxytryptamine receptor 1E (Homo sapiens) (UniProt P28566). The assay can be described thus: activation of human serotonin 5HT1E receptor – cell-based, HTS, primary screen (AID 574).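 Also: 100% = positive control agonist at 1 µM giving full maximal response.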 The following applies: CHO 5-HT1E Ga15 NFAT-bla reporter, FRET; at 6 µM; hits give high values; 0% DMSO wells, 100% control agonist wells.
As to `N/C(=N\O)c1c(N)no[n+]1[O-]`, the activation was inactive: 0.8%.
For `CCOc1ncccc1C(=O)NCC1(N2CCOCC2)CCCCC1` the value was inactive: 0%; for `CCC(CO)(C(=O)OC1CN2CCC1CC2)c1ccccc1` (configuration not stated), inactive: 0.4%.
Take `Fc1ccccc1NC1CCN(Cc2ccccc2)CC1`: the activation was inactive: 0.6%.
On to `COc1ccc(NC2CCN(CCc3ccccc3)CC2)c(OC)c1`, for which the activation is inactive: 0.3%.
Turning to `O=C(OC1CN2CCC1CC2)C1c2ccccc2Oc2ccccc21` (configuration not stated), the activation was inactive: -0.7%.
With `N#CC1(Nc2ccccc2)CCN(CCc2ccccc2)CC1`, the activation was inactive: -0.4%.
